The values below come from ChEMBL document CHEMBL5726741, “Enantiomers of the 1′,6′-isomer of neplanocin A” (2019).

pIC50: −log10 of the molar value.

The test concerns the target T1, AdoHcyase_NAD domain-containing protein (Oryctolagus cuniculus, UniProt G1SVH0).
T1 sequence (G1SVH0 whole entry): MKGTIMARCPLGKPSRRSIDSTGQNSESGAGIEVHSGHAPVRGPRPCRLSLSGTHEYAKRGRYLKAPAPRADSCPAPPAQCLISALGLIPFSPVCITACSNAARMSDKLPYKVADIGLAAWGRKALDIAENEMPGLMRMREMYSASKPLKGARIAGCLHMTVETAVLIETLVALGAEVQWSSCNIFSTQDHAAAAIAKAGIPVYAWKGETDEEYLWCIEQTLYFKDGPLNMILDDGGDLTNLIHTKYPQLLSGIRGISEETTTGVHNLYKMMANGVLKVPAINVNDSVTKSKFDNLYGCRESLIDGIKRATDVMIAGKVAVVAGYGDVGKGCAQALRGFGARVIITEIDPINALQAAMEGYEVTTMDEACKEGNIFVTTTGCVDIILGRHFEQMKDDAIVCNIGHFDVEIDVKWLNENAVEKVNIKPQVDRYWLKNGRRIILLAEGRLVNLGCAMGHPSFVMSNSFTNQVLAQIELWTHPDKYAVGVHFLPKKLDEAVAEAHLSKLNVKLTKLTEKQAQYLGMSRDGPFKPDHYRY
Description: S-Adenosylhomocysteine Hydrolase (SAHase) Inhibition: As a consequence of "D"-Isoneplanocin and "L"-Isoneplanocin, being isomers of Neplanocin A, which on one hand is a potent inhibitor of S-adenosylhomocysteine hydrolase (SAHase), a mechanism agreed upon as one source of its antiviral activity and on the other hand thought to contribute to cytotoxicity, the inhibitory efficiency on SAHase ….

By pIC50 is commonly meant the IC50 on a negative log10 scale, so that one unit is a factor of ten. A higher pIC50 goes with a low IC50. For the molecule `Nc1ncnc2c1ncn2C1=C[C@H](CO)[C@@H](O)[C@H]1O`, the pIC50 is 9.05.

`Nc1ncnc2c1ncn2C1=C[C@@H](CO)[C@@H](O)[C@H]1O` had a negative logarithm of the IC50 (pIC50) of 7.57. This pIC50 is 1.48 log units lower than that of the molecule before.
